Ab-14 heavy chain CDR variants: yeast mating affinities

Target peptide (SARS-CoV-2 spike, HR2 region): PDVDLGDISGINAS

Ab-14 is the parent antibody, in scFv form: VH, then the linker GGGGSGGGGSGGGGS, then VL. The light chain is unchanged in all variants.
VH: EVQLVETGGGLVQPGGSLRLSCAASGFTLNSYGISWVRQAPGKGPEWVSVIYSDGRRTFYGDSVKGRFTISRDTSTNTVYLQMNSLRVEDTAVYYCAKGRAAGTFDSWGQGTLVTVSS
VL: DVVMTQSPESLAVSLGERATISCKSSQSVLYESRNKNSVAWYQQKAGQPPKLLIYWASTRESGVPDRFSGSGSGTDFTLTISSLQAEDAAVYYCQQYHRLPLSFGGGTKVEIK

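This is the validation round: designs drawn from the data on random variants, tested in the same kind of assay. Group labels follow the data file (Ctrl: baseline library sampled from a position-specific scoring matrix, with some repeated check sequences; Rand: our label for a block that the file lists under HC and that is probably the random mutants of the ten best first-round binders; En: ensemble of fine-tuned language models; GP: Gaussian process model; GPLM: also part of the Gaussian process libraries; HC: hill climbing; Gen: genetic algorithm; Gibbs: Gibbs sampling; a sequence that several methods proposed may carry one label only). Affinity was read by AlphaSeq, a pooled yeast mating assay with surface-displayed partners. Mating (16 h, 30 °C) was followed by selection of diploids and sequencing of their barcodes. Scores were corrected for input abundance and mapped to Kd with protein pairs of known affinity run in the same pool. Mating was done six times.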

Each variant is given by its three heavy chain CDRs, as the data file delimits them; those of the parent are GFTLNSYGIS, VIYSDGRRTFYGDSVK, GRAAGTFDS. Each Kd is an estimate from the mating assay, the geometric mean of the replicates in which the pair was seen; lower is stronger. "not detected" marks a missing value. The strain was present, yet no cells mated with the target were sequenced in any replicate, which points to weak or no binding.

| # | CDR-H1 | CDR-H2 | CDR-H3 | group | apparent Kd | detected |
|---|---|---|---|---|---|---|
| 1 | GFDLDEYGIS | VIYADGQRTFYKDSVK | GSNAGTFDM | En_HC | 350 pM | 6 of 6 |
| 2 | GFDLNEYGIS | VIYADGVRTFYIDSVK | GETAGTFDQ | En_HC | 830 pM | 6 of 6 |
| 3 | LFWLNEYGIS | VIYSDGRRTFYRDSVK | GRTAGTFDS | GP_HC | 350 nM | 3 of 6 |
| 4 | LFTLNSYGIS | VIYSDGRRTFISDSFK | GRAAWTFKS | Ctrl | 360 nM | 1 of 6 |
| 5 | GFDLNEYGIS | VIYADGSRTAYADNVK | GNQAGTFDV | En_Gen | 730 pM | 6 of 6 |
| 6 | GFELNSYGIS | VIYADGMRTFYGDSVK | GRAAGTFDS | Ctrl | 1.7 nM | 6 of 6 |
| 7 | GFSLNNYGIS | VIYSDGRRTFYGDSVK | GWTAGTFDS | GPLM_Gen | 1.7 nM | 6 of 6 |
| 8 | GFSLNSYGIS | VIYSDGRRTFYLDSVK | GKAAGTFDS | GP_Gibbs | not detected | 0 of 6 |
| 9 | GFDLEDYGIS | VIYADGMRTAYADDVK | GEVAGTFDV | En_Gen | 1.1 nM | 6 of 6 |
| 10 | MFWLNDYGIS | VIYSDGRRTFYHDSVK | GRTAGTFDS | GP_Gibbs | 120 nM | 3 of 6 |
| 11 | GFTLNDYGIS | VIYSDGRRTFYGDSVK | GRIAGTFDS | GPLM_Gen | 1.2 nM | 6 of 6 |
| 12 | GFQLNEYGIS | VIYSDGRRTFYGDQVK | GRTAGTFDS | GP_Gen | 3.2 nM | 6 of 6 |
| 13 | GFDLNEYGIS | VIYADGKRTFYTDSVK | GQNAGTFDV | En_HC | 320 pM | 6 of 6 |
| 14 | GFDLNEYGIS | VIYADGRRTAYDDSVK | GQVAGTFDD | En_HC | 250 pM | 6 of 6 |
| 15 | GFTLNDYGIS | VIYSDGRRTQYKDSVK | LRAAGTFDS | Rand | not detected | 0 of 6 |
| 16 | GFTINEYGIS | VIYSDGRRTFYQDSVK | GRAAGTFDS | Ctrl | 4.4 nM | 6 of 6 |
| 17 | GFSLNSYGIS | VIYSDGRRTFYGDSVK | GRTAGTFDK | GPLM_Gen | 7.9 nM | 6 of 6 |
| 18 | GFQLDEVGIS | VIYADGIRRAYASKVK | GGIGASFDL | En_Gibbs | not detected | 0 of 6 |
| 19 | GFTLNSYGIS | VIYSDGRRTFYGDSVK | GRRVGTFDS | Ctrl | not detected | 0 of 6 |
| 20 | GFDINEYGIS | VIYADGRRTFYADSVK | GNNGGTFDL | En_HC | 2.1 nM | 6 of 6 |
| 21 | GFDLNSYGIS | VIYSDGRRTFYIDSVK | GEAAGTFDS | GPLM_Gibbs | 810 pM | 6 of 6 |
| 22 | GFTLNSYGIS | VIYSDGRRTFYGDSVK | FRAAGGFDS | Ctrl | 800 nM | 1 of 6 |
| 23 | GFTLNSYGIS | VIYSDGRRVFYGDSVK | GRAAGTFDE | Ctrl | 240 nM | 3 of 6 |
| 24 | GFDLNEYGIS | VIYADGMRTAYIDSVK | GENAGTFDV | En_Gen | 640 pM | 6 of 6 |
| 25 | GFDLNEYGIS | VIYADGVRTAYSDSVK | GENAGTFDT | En_Gen | 850 pM | 6 of 6 |
| 26 | GFSLNSYGIS | VIYSDGRRTFYQDSVK | GWAAGTFDS | GPLM_Gen | 13 nM | 2 of 6 |
| 27 | GFDLNSYGIS | VIYSDGRRTFYIDSVK | GRAAGTFDL | GP_HC | 7.1 nM | 6 of 6 |
| 28 | GFTMNEYGIS | VIYSDGRKTFYTDSVK | GRFAPTFDS | Rand | 81 nM | 4 of 6 |
| 29 | GFTLNSYGIS | VIYSDGRRTFYGDSVK | GRVAGTFDK | GPLM_Gen | 4.1 nM | 3 of 6 |
| 30 | GFDLEDYGIS | VIYADGRRTSYADSVK | GEAAGTFDL | En_HC | 490 pM | 5 of 6 |
| 31 | GFDLNEYGIS | VIYADGMRTAYADDVK | GNEAGTFDV | En_Gen | 330 pM | 6 of 6 |
| 32 | GEGLQEYGIS | VIYADGQRIYYSDDVK | GQVAGHFLV | En_Gibbs | not detected | 0 of 6 |
| 33 | GFDLNEYGIS | VIYADGMRTVYADDVK | GNVAGTFDI | En_Gen | 160 pM | 6 of 6 |
| 34 | GFDLNEYGIS | VIYADGKRTSYIDSVK | GNVAGTFDV | En_Gen | 600 pM | 6 of 6 |
| 35 | GFTLDSYGIS | VIESDGRRTFYGDSVK | GRAAGTALS | Rand | not detected | 0 of 6 |
| 36 | GFDLNEYGIS | VIYADGVRTFYVDSVK | GETAGTFDI | En_HC | not detected | 0 of 6 |
| 37 | GFELNSYGIS | VIYADGRRTFYGDSVK | GRTAGTFDT | GP_Gen | 230 pM | 6 of 6 |
| 38 | GFTLNSYGIS | VIYSDGRRTFYSDNVK | GRAAGTFDS | Ctrl | 1.4 nM | 6 of 6 |
| 39 | GKSLDEYGIS | VIYADGMRSAYTDDVK | GVWGEDVVT | En_Gibbs | 330 nM | 2 of 6 |
| 40 | GFNLDEYGIS | VIYADGVRTAYADSVK | GNVAGTFDI | En_Gen | 430 pM | 6 of 6 |
| 41 | GFDLDEYGIS | VIYADGMRTVYADSVK | GEVAGTFDL | En_Gen | 430 pM | 6 of 6 |
| 42 | GFDLDEYGIS | VIYADGRRTAYADDVK | GGNAGTFDV | En_Gen | 7.4 nM | 5 of 6 |
| 43 | GFNLDEYGIS | VIYADGVRTSYTDQVK | GVETGAVLE | En_Gibbs | not detected | 0 of 6 |
| 44 | GFDLNEYGIS | VIYADGRRTAYIDSVK | GEAAGTFDE | En_HC | 320 pM | 6 of 6 |
| 45 | GFNLDEYGIS | VIYADGMRTAYADSVK | GNVAGTFDL | En_Gen | 140 pM | 6 of 6 |
| 46 | GFDLNEYGIS | VIYADGKRTAYADSVK | GQVAGTFDL | En_Gen | 490 pM | 6 of 6 |
| 47 | GFDLNEYGIS | VIYADGVRTAYADSVK | GQTAGTFDI | En_Gen | 290 pM | 6 of 6 |
| 48 | GFNLNEYGIS | VIYADGRRTFYADSVK | GGLAGTFDV | En_HC | 360 pM | 6 of 6 |
| 49 | GFDLNEYGIS | VIYADGVRTAYADDVK | GNTAGTFDL | En_Gen | 440 pM | 6 of 6 |
| 50 | RFNLNWYGIS | VIYSDHRRTFYGPSVK | GRAAGWFNS | Rand | not detected | 0 of 6 |
| 51 | GFDLNEYGIS | VIYADGMRTSYADSVK | GNQAGTFDM | En_Gen | 8.5 nM | 4 of 6 |
| 52 | GFTLNSYGIQ | VIYSDGRRTFYQDSVK | GRAAGTFDS | Ctrl | not detected | 0 of 6 |
| 53 | GFDLNSYGIS | VIYSDGRRTFYGDDVK | GRTAGTFDT | GP_Gibbs | 600 pM | 6 of 6 |
| 54 | GFTLNSYGIS | VIYSDGRRTFYGDCYK | GNAAGTFDS | Ctrl | not detected | 0 of 6 |
| 55 | GFDLEEYGIS | VIYADGKRTFYSDSVK | GENAGTFDV | En_HC | 140 pM | 6 of 6 |
| 56 | GDTLNMYGIS | VIYSDGRRTFYGDSVK | GRAAGTFDS | Ctrl | 71 nM | 6 of 6 |
| 57 | GFALNSYGIS | VIYSDGRRTFYGGSVK | GRAAGTFKS | Ctrl | 33 nM | 1 of 6 |
| 58 | GFDLNEYGIS | VIYADGMRTFYTDSVK | GNVAGTFDS | En_HC | 570 pM | 6 of 6 |
| 59 | GVTLNSYGIS | VIYRDGMRTFYGDSVK | GRDAGTFDS | Ctrl | not detected | 0 of 6 |
| 60 | GFSLDEYGIS | VIYADGFRTAYTNSVK | GLMQQGRTV | En_Gibbs | not detected | 0 of 6 |
| 61 | GFTLNSYGIS | VIYSDGRRTFYGDSVK | RMAKGTFDY | Ctrl | not detected | 0 of 6 |
| 62 | GFDLNEYGIS | VIYADGVRTAYADSVK | GNAAGTFDV | En_Gen | 140 pM | 6 of 6 |
| 63 | GFDLNEYGIS | VIYADGMRTAYSDSVK | GQVAGTFDT | En_Gen | 240 pM | 6 of 6 |
| 64 | GFTLNSYGIS | VIYSDGRRTFYDDSVK | GTAAGTFDS | GP_HC | 1.8 nM | 6 of 6 |
| 65 | GESLDEFGIS | VIYADGMRTAYTDKVK | GLVAATLVD | En_Gibbs | not detected | 0 of 6 |
| 66 | GFTLYEYGIS | VIYSDGRRTFYGDSVK | GRAAVTFCQ | Rand | not detected | 0 of 6 |
| 67 | GFELSEYGIS | VIYADGHRSFVTDSVK | GQNAGAFNV | En_Gibbs | 6.2 nM | 6 of 6 |
| 68 | GFSLDEYGIS | VIYADGARAAYTNDFK | GNIGGVFGK | En_Gibbs | 31 nM | 2 of 6 |
| 69 | GFDLNEYGIS | VIYADGRRTFYSDSVK | GTNGGTFDM | En_HC | 2.2 nM | 6 of 6 |
| 70 | GFTLNLYGIS | VIYSDGRRTFYGDSVK | GRAAGTFDS | Ctrl | 9.9 nM | 2 of 6 |
| 71 | GFTLNSYGIS | VIYSDGQRTSYHDEVK | GRAAGTFDS | Ctrl | 540 nM | 4 of 6 |
| 72 | GFTLNSYGIS | VIYSDGRRTFYSDSVK | GRNAGTFDS | Ctrl+GPLM_HC | 3.2 nM | 12 of 12 |
| 73 | GFTLNSYGIS | VIYADGRRTFYGDSVK | GRAAGYGDS | Ctrl | not detected | 0 of 6 |
| 74 | GKDLEEYGIS | VIYADGVRTSYLDQVK | GESGGAYYT | En_Gibbs | not detected | 0 of 6 |
| 75 | GFDLDEYGIS | VIYADGRRTAYADSVK | GGNAGTFDI | En_Gen | 330 pM | 6 of 6 |
| 76 | GFDLNEYGIS | VIYADGRRTFYTDSVK | GANAGTFDF | En_HC | 330 pM | 6 of 6 |

The opening 11 entries, copied out:

CDR-H1,CDR-H2,CDR-H3,group,apparent Kd,detected
GFDLDEYGIS,VIYADGQRTFYKDSVK,GSNAGTFDM,En_HC,350 pM,6 of 6
GFDLNEYGIS,VIYADGVRTFYIDSVK,GETAGTFDQ,En_HC,830 pM,6 of 6
LFWLNEYGIS,VIYSDGRRTFYRDSVK,GRTAGTFDS,GP_HC,350 nM,3 of 6
LFTLNSYGIS,VIYSDGRRTFISDSFK,GRAAWTFKS,Ctrl,360 nM,1 of 6
GFDLNEYGIS,VIYADGSRTAYADNVK,GNQAGTFDV,En_Gen,730 pM,6 of 6
GFELNSYGIS,VIYADGMRTFYGDSVK,GRAAGTFDS,Ctrl,1.7 nM,6 of 6
GFSLNNYGIS,VIYSDGRRTFYGDSVK,GWTAGTFDS,GPLM_Gen,1.7 nM,6 of 6
GFSLNSYGIS,VIYSDGRRTFYLDSVK,GKAAGTFDS,GP_Gibbs,not detected,0 of 6
GFDLEDYGIS,VIYADGMRTAYADDVK,GEVAGTFDV,En_Gen,1.1 nM,6 of 6
MFWLNDYGIS,VIYSDGRRTFYHDSVK,GRTAGTFDS,GP_Gibbs,120 nM,3 of 6
GFTLNDYGIS,VIYSDGRRTFYGDSVK,GRIAGTFDS,GPLM_Gen,1.2 nM,6 of 6

As a blank, each scFv also met three strains without target: over all heavy chain designs, 1% of these pairings were detected, typically at 120 nM and seldom below 7.0 nM. Values of this round are not directly comparable with the first-round values of the same sequences. Some sequences occur more than once in the pool; their replicates are pooled. The authors' rule: three or more of the six replicates give a measured affinity, fewer mean a poor binder.

Values reported by Li et al. 2023, doi:10.1038/s41467-023-39022-2 (FLAb copy).